# Reference: patent US7781436B2 (Hoffmann-La Roche Inc., priority 2005, dated 2010)
# Chains of the proteins cited; added tags and fusions are not shown.
# UniProt P37288, whole entry: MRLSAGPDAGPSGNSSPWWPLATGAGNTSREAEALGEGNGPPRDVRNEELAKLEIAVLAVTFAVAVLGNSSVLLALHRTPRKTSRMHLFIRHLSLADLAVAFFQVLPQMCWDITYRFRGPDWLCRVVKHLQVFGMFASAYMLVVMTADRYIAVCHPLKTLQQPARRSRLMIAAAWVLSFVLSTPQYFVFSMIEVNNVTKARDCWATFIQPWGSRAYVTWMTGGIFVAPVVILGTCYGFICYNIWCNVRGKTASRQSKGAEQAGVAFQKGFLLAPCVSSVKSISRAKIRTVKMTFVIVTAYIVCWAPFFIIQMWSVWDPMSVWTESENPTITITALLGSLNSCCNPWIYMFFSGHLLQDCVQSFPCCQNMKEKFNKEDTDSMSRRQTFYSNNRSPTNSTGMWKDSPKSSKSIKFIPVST
# Target: human V1a receptor (Homo sapiens, UniProt P37288)
# Experiment: human V1a receptor binding (3H-Vasopressin SPA, membranes of transfected HEK293 cells)
# Conditions: displacement of 4 nM 3H-Vasopressin, HEK293 cell membranes, Ki by Cheng-Prussoff from IC50
# Method: The human V1a receptor was cloned by RT-PCR from total human liver RNA. The coding sequence was subcloned in an expression vector after sequencing to confirm the identity of the amplified sequence. […] Cell membranes were prepared from HEK293 cells transiently transfected with the expression vector and grown in 20 liter fermenters with the following protocol.
# 50 g of cells are resuspended in 30 ml freshly prepared ice cold Lysis buffer (50 mM HEPES, 1 mM EDTA, 10 mM MgCl2 adjusted to pH=7.4+ complete cocktail of protease inhibitor (Roche Diagnostics)). Homogenized with Polytron for 1 min and sonicated on ice for 2×2 minutes at 80% intensity (Vibracell sonicator). The preparation is centrifuged 20 min at 500 g at 4° C., the pellet is discarded and the supernatant centrifuged 1 hour at 43,000 g at 4° C. (19'000 rpm). The pellet is resuspended in 12.5 ml Lysis buffer+12.5 ml Sucrose 20% and homogenized using a Polytron for 1-2 min. The protein concentration is determined by the Bradford method, and aliquots are stored at −80° C. until use. […] The plate is incubated 1 h at room temperature, centrifuged 1 min at 1000 g and counted on a Packard Top-Count. […] To calculate an IC 50 the curve is fitted using a non-linear regression model (XLfit) and the Ki is calculated using the Cheng-Prussoff equation.
structure (smiles),measurement,value
COc1cccc(OC)c1C1CCN(C(=O)c2cn(Cc3ccc(Cl)nc3)c3cc(Cl)ccc23)CC1,Ki,7 nM
